{
  "source": "patent US6762174B1",
  "about": "(priority 1998, dated 2004)",
  "key": {"[1]": {"tested_on": "MOPC-315 myeloma", "assay": "MOPC-315 Myeloma study #2: β-alethine ip day 10 (1 × 10^6 tumor cells)", "details": "BT 30 femtograms/kg to 3 milligrams/kg on day 10"}, "[2]": {"tested_on": "NS-1 myeloma", "details": "published studies; cited from earlier work"}, "[3]": {"tested_on": "MT-1 breast cancer xenograft"}, "[4]": {"tested_on": "MOPC-315 myeloma", "assay": "MOPC-315 Myeloma study #1: β-alethine ip day 2 (1 × 10^6 tumor cells)", "details": "BT 30 femtograms/kg to 3 milligrams/kg on day 2"}, "[5]": {"tested_on": "MT-1 breast cancer xenograft", "remark": "listed apart in the source"}, "[6]": {"tested_on": "CHO cells containing a cloned gene for tissue plasminogen activator (tPA)", "assay": "Stimulation of tPA production from CHO cells (ELISA)", "details": "for Culture Cell Density / Picograms tPA per cell / Supernatant Concentration (tPA) / Supernatant Concentration relative to control / tPA per cell relative to control: 1 ρg/ml; for Culture Cell Density: cell numbers per milliliter"}},
  "note": "Like-named read-outs stand apart in the source and are kept apart here.",
  "data": [
    {"compound": "NCCC(=O)NCCSSCCNC(=O)CCN", "note": "[BT, β-alethine]", "values": [
      {"measurement": "effect on survival", "setting": "[1]", "result": "no effect on survival"},
      {"measurement": "effective in causing NS-1 inoculated animals to survive", "setting": "[2]", "result": 100, "unit": "%"},
      {"measurement": "Thrombocytes d 46", "setting": "[3]; mouse, in vivo", "result": "789 10^6/mL"},
      {"measurement": "effect on survival", "setting": "[4]", "result": "no effect on survival"},
      {"measurement": "T/C ratio (treated vs. control median relative tumor volume)", "setting": "[5]; 3 injections of 30 ng/kg BT, 45 days", "result": 29, "unit": "%"},
      {"measurement": "toxic effects (body weight, blood parameters)", "setting": "[5]; BT 30 fg/kg to 30 mg/kg ip", "result": "did not produce any toxic effects"}
    ]},
    {"compound": "O=P1(N(CCCl)CCCl)NCCCO1", "note": "(stereo not shown) [cp, cyclophosphamide]", "values": [
      {"measurement": "Thrombocytes d 46", "setting": "[3]; Cp 100 mg/kg", "result": "756 10^6/mL"},
      {"measurement": "Thrombocytes d 46", "setting": "[3]; Cp 200 mg/kg", "result": "505 10^6/mL"},
      {"measurement": "Thrombocytes d 46", "setting": "[3]; Cp 300 mg/kg", "result": "425 10^6/mL"}
    ]},
    {"compound": "N-carbobenzoxy-β-alanyl-taurine zinc salt", "values": [
      {"measurement": "Culture Cell Density", "setting": "[6]; listed as #1", "result": "4.0 × 10^5"},
      {"measurement": "Culture Cell Density", "setting": "[6]; listed as #2", "result": "4.8 × 10^5"},
      {"measurement": "Culture Cell Density", "setting": "[6]; listed as #3", "result": "5.2 × 10^5"},
      {"measurement": "Picograms tPA per cell", "setting": "[6]; listed as #1", "result": 3.73, "unit": "Picograms per cell"},
      {"measurement": "Supernatant Concentration (tPA)", "setting": "[6]; listed as #1", "result": "1,492.8 nanograms/ml"},
      {"measurement": "Supernatant Concentration relative to control", "setting": "[6]; listed as #1", "result": "[3.5 × control]"},
      {"measurement": "tPA per cell relative to control", "setting": "[6]; listed as #1", "result": "[1.9 × control]"},
      {"measurement": "Picograms tPA per cell", "setting": "[6]; listed as #2", "result": 2.89, "unit": "Picograms per cell"},
      {"measurement": "Supernatant Concentration (tPA)", "setting": "[6]; listed as #2", "result": "1,389.4 nanograms/ml"},
      {"measurement": "Supernatant Concentration relative to control", "setting": "[6]; listed as #2", "result": "[3.3 × control]"},
      {"measurement": "tPA per cell relative to control", "setting": "[6]; listed as #2", "result": "[1.5 × control]"},
      {"measurement": "Picograms tPA per cell", "setting": "[6]; listed as #3", "result": 4.06, "unit": "Picograms per cell"},
      {"measurement": "Supernatant Concentration (tPA)", "setting": "[6]; listed as #3", "result": "2,113.0 nanograms/ml"},
      {"measurement": "Supernatant Concentration relative to control", "setting": "[6]; listed as #3", "result": "[5.0 × control]"},
      {"measurement": "tPA per cell relative to control", "setting": "[6]; listed as #3", "result": "[2.1 × control]"},
      {"measurement": "per-cell production of tPA altered", "setting": "[6]; vs control", "result": "about 2 fold"}
    ]}
  ]
}
